The test system of this test is zebrafish fosab gene. The test can be described thus: RNA-seq analysis of zebrafish larvae liver (fosab). It counts as in vivo, Danio rerio. The settings on record: 2 mM, exposed 3 dpf, collected 6 dpf. The method, then: As previously described ([Han et al., 2018a]), the process of ribonucleic acid sequencing (RNA-seq) analysis was carried out by CapitalBio Corporation (Beijing, China). […] Cytoscape software was employed to map the drug–pathway network.

Regarding `CC[C@H]1OC(=O)[C@H](C)[C@@H](O[C@H]2C[C@@](C)(OC)[C@@H](O)[C@H](C)O2)[C@H](C)[C@@H](O[C@@H]2O[C@H](C)C[C@H](N(C)C)[C@H]2O)[C@](C)(O)C[C@@H](C)CN(C)[C@H](C)[C@@H](O)[C@]1(C)O` [Azithromycin], the “Fold change of fosab gene (RNA-seq)” value is given as 3.27.

The record behind these values is publication PMC9014295 (Frontiers in Pharmacology, 2022).
